Chains of the proteins cited; added tags and fusions are not shown.
Guanine nucleotide-binding protein G(i) subunit alpha-3 (Rattus norvegicus), P08753, UniProt P08753, whole entry, looked up: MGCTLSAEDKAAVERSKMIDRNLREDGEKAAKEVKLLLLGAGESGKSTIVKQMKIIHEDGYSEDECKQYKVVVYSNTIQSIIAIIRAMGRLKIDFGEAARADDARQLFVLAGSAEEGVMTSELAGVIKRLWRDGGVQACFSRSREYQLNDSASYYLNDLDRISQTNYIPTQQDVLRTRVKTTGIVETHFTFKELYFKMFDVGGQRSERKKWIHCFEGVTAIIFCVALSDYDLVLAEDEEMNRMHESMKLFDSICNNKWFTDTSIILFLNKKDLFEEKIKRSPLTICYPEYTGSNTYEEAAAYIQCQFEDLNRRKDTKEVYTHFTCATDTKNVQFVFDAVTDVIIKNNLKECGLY

# GIV Gai3 FP – inhibitors of GIV peptide binding to Galpha-i3, primary screen, biochemical, fluorescence polarization, FITC-GIV GBA peptide, rat Galphai3; Guanine nucleotide-binding protein G(i) subunit alpha-3 (Rattus norvegicus), P08753; 0.42% of 210,000 active; percent of control (FP), % (concentration not given with the values); 90 min; stronger effect = lower value; scaled: aluminum fluoride 0%, vehicle 100%;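 active = replicate mean at 85% of control or lower, very high polarization wells dropped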;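 note: wells of about 15 µL received 100 nL stock; the first replicate is given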
# GIV Gai FP conf – inhibitors of GIV peptide binding to Galpha-i3, confirmation, biochemical, fluorescence polarization, FITC-GIV peptide, rat Galphai3; fluorescence polarization, mP at 100 µM; shares compounds with GIV Gai3 FP; stronger effect = lower value; 38% of 580 active; AID 1259350, 2017;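 active = inhibition score of 15 or more, meaning 100 minus mean polarization as percent of control over three replicates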
# GIV Gai AS conf – inhibitors of GIV binding to Galpha-i3, confirmation, orthogonal assay for GIV-Galpha-i inhibitor project, biochemical, AlphaScreen, His-GIV, GST-Galphai3 | shares compounds with GIV Gai3 FP | purified proteins, 90 min; stronger effect = lower value | AlphaScreen counts at 100 µM | 39% of 580 active | AID 1259351, 2017;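 active = inhibition score at or above a set limit, where the score is 100 minus the three-replicate mean percent of control signal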
# Starred values were filed as active, the others as inactive; ! = repeats disagree. This is one part of a sample in which hits are shown more often than they occur.
SMILES,GIV Gai3 FP,others
CCc1ccc2nc(N)sc2c1,100,
Nc1nc2ccc(NC(=O)c3ccccc3)cc2s1,107,
O=C(c1ccc2c(c1)CCCN2S(=O)(=O)c1ccccc1)N1CCN(c2ccccc2)CC1,103,
CCn1c(C)c(CCC(=O)NCc2ccc3c(c2)OCO3)c(=O)n2nc(-c3ccccc3OC)cc12,97,
COc1ccc(OC)c(NC(=O)N2CCN(c3nc4ccccc4n4cccc34)CC2)c1,98,
COc1ccc(Cl)cc1NC(=O)N1CCN(c2nc3ccccc3n3cccc23)CC1,83*,GIV Gai FP conf=77;GIV Gai AS conf=24336
COc1ccccc1NC(=O)N1CCN(c2nc3cc(F)ccc3n3cccc23)CC1,103,
OC1(c2ccc(Cl)cc2)CN(c2ccc(Br)cc2)C2=[N+]1CCCS2 (stereo not given),110,
O=S(=O)(NCc1ccc(-c2nn3cnnc3s2)cc1)c1ccccc1,105,
CC(C)CCNC(=O)c1cc(-c2ccc(Br)s2)nc2ccccc12,91,GIV Gai FP conf=86;GIV Gai AS conf=34180
CCCCN(C)CCCNC(=O)c1cc(-c2ccc(Br)s2)nc2ccccc12,106,
O=C(NCCN1CCc2ccccc2C1)c1cc(-c2ccc(Br)s2)nc2ccccc12,110,
O=C(CCc1nnc2ccc(NCc3ccc(F)cc3)nn12)NCC1CCCO1 (stereo not given),103,
CCc1onc(C)c1C1CCCN1C(=O)Nc1ccc2c(c1)OCO2 (stereo not given),101,
CCCCN(C)S(=O)(=O)c1ccc2c(c1)CC(C)N2C(C)=O (stereo not given),100,
CCCCN(C)S(=O)(=O)c1ccc2c(c1)CCCC(=O)N2,98,
CN(CCCC(=O)O)S(=O)(=O)c1ccc2c(c1)Cc1cc(S(=O)(=O)N(C)CCCC(=O)O)ccc1-2,83*,GIV Gai FP conf=50*;GIV Gai AS conf=26370*
Cc1cc(N2CCCC2)n2nc(Cc3ccccc3)nc2n1,99,
On1c2c(c3c4nonc4ccc31)CCCC2,50*,GIV Gai FP conf=42*;GIV Gai AS conf=10129*
CCOC(=O)COn1c(C)c(C(=O)OCC)c2c3nonc3ccc21,103,
COn1c2c(c3c4nonc4ccc31)CCCC2,102,
CCc1cc(C2CCCN2C(=O)c2cc(C(C)C)no2)on1 (stereo not given),100,
Cn1nc(C(=O)N2CCCC(C(=O)Nc3ccccc3)C2)c2c1CCN(C(=O)C1CCC1)C2 (stereo not given),108,
CCCCOc1ccccc1C1C(C(=O)OCC)=CN(Cc2ccc(OC)cc2)C=C1C(=O)OCC,108,
CCCN1CC=C2C(C#N)=C(N)C(C#N)(C#N)C(c3cccc(OC)c3)C2C1 (stereo not given),105,
CCCN1CC=C2C(C#N)=C(N)C(C#N)(C#N)C(c3ccc(OCC(N)=O)cc3)C2C1 (stereo not given),85*,GIV Gai FP conf=71;GIV Gai AS conf=23647
CCCN1CC=C2C(C#N)=C(N)C(C#N)(C#N)C(c3ccc(OC)cc3)C2C1 (stereo not given),111,
COCCn1c(CCCC(=O)NC2CCCC2)nc2cccnc21,106,
CCN1CCN(Cc2cc(=O)n3[nH]c(-c4ccccc4)nc3n2)CC1,101,
COc1cccc(-c2nn3c(-c4cc(C(C)C)[nH]n4)nnc3s2)c1OC,106,

# Quoted at random: five entries already listed
SMILES,GIV Gai3 FP,others
COc1ccc(Cl)cc1NC(=O)N1CCN(c2nc3ccccc3n3cccc23)CC1,83*,GIV Gai FP conf=77;GIV Gai AS conf=24336
CCc1cc(C2CCCN2C(=O)c2cc(C(C)C)no2)on1 (stereo not given),100,
COc1cccc(-c2nn3c(-c4cc(C(C)C)[nH]n4)nnc3s2)c1OC,106,
CCCN1CC=C2C(C#N)=C(N)C(C#N)(C#N)C(c3cccc(OC)c3)C2C1 (stereo not given),105,
CCCCN(C)S(=O)(=O)c1ccc2c(c1)CC(C)N2C(C)=O (stereo not given),100,

# More records.
SMILES,GIV Gai3 FP,others
CC(C)c1cc(-c2nnc3sc(-c4ccncc4)nn23)n[nH]1,85*,GIV Gai FP conf=63;GIV Gai AS conf=12549*
COc1ccccc1-c1nn2c(-c3cc(C(C)C)[nH]n3)nnc2s1,102,
CC(C)N1CC=C2C(C1)C(c1ccccc1Cl)C(C#N)=C(N)C2(C#N)C#N (stereo not given),100,
CC(C)NC(=O)CCn1c(=O)c2cc(Cl)ccc2n2c(=O)n(CC(=O)NC3CCCC3)nc12,104,
CNC(=O)N1CCc2cc(S(=O)(=O)NC3CC3)ccc21,101,
CC1Cc2ccccc2N1C(=O)Cc1csc(NC(=O)Nc2ccccc2)n1 (stereo not given),107,
O=C1c2ccccc2C(=O)C1C(c1ccccc1)C1C(=O)c2ccccc2C1=O,76*,GIV Gai FP conf=54;GIV Gai AS conf=5972*
O=C(c1ccccc1)C1C(=O)c2ccccc2C1=O,97,
O=C1c2ccccc2C(=O)C1c1ccccc1Br,100,
CCOC(=O)c1c(NC(=O)CSc2nnc(CNC(=O)c3cccc(C)c3)n2C)sc2c1CCCC2,102,
O=C1CSCC(=O)N1c1ccc(Cl)cc1C(F)(F)F,102,
COC(=O)CSc1nc(C)c(Br)c(=O)[nH]1,104,
CC1CCN(c2nc(Nc3ccccc3)c3cnn(C)c3n2)CC1,96,
CCn1c(=O)c2c(C(=O)NCCC3=CCCCC3)cc(=O)n(CC)c2n(C)c1=O,107,
CC(C)Cn1c(=O)c2cc(Cl)ccc2n2c(SCc3ccccc3F)nnc12,109,
O=C(Nc1cccc(C(=O)N2CCCC(C(=O)NCc3ccccc3)C2)c1)c1ccccc1Cl (stereo not given),106,
Nc1nc(-c2ccccc2Cl)nn1C(=O)C1CC1,105,
CSc1nc(C)nc(Sc2ccccc2)c1C#N,125,
N#Cc1c(Sc2ccccc2)ncc2cc3ccccc3nc12,79*,GIV Gai FP conf=67;GIV Gai AS conf=50621
N#Cc1ccc(Sc2ccccc2)nc1,99,

# 3 entries from above, arranged by length of the SMILES, rising.
SMILES,GIV Gai3 FP,others
N#Cc1ccc(Sc2ccccc2)nc1,99,
O=C1CSCC(=O)N1c1ccc(Cl)cc1C(F)(F)F,102,
CC(C)Cn1c(=O)c2cc(Cl)ccc2n2c(SCc3ccccc3F)nnc12,109,

# More entries follow:
SMILES,GIV Gai3 FP,others
Cc1cc(C)c2c(c1)-c1c(ssc1=S)C(C)(C)N2C(=O)Cc1ccccc1,112,
CCCCC1=NN2C(=N)/C(=C\c3cccn3-c3ccc(C)cc3C)C(=O)N=C2S1,97,
CCN(CC)CCOc1nnc(-c2ccc(Cl)cc2)c2ccccc12,99,
COc1ccc(OCC(O)Cn2c(N3CCNCC3)nc3c2c(=O)n(C)c(=O)n3C)cc1 (stereo not given),99,
CCOc1ccc2c(c1)C(=O)c1cc(OCC)ccc1-2,97,
CCCOc1ccc2c(c1)C(=O)c1cc(OCC(=O)O)ccc1-2,80*,GIV Gai FP conf=73;GIV Gai AS conf=54581
CCOc1ccc2c(c1)C(=O)c1cc(OCC(=O)OC)ccc1-2,128,
O=C(Nc1ccc2nccnc2c1)c1ccc(F)cc1,97,
CCOC(=O)c1sc2nc[nH]c(=O)c2c1C,103,
Cc1ccc(NC(=O)c2sc3nc[nH]c(=O)c3c2C)cc1Cl,108,
CCOC(=O)c1cccc(NC(=O)c2sc3nc[nH]c(=O)c3c2C)c1,92,GIV Gai FP conf=78;GIV Gai AS conf=34553
O=c1c2ccccc2ncn1Cc1noc(C2CCC2)n1,108,
NC(=O)C(CNS(=O)(=O)c1ccc(Cl)cc1)Sc1ncccn1 (stereo not given),110,
O=C(CSc1nc2ccccc2c(=O)n1Cc1ccco1)OC1CCCCC1,102,
CCCC(=O)N1c2cc(C)c(C)cc2/C(=C2/SC(C(=O)OCC)=C(c3ccccc3)S2)C(=S)C1(C)C,104,
CC(=O)n1c(=O)c2ccccc2c(=O)n1-c1ccccc1,79*!,GIV Gai FP conf=52*;GIV Gai AS conf=2364*
CN(C)C(=O)c1cn(-c2ccccc2)c(=O)c2ccccc12,111,
CNC(=O)c1cn(-c2ccccc2)c(=O)c2ccccc12,104,
Cc1nn(C)c2nc(OC(C)C(=O)NCc3ccc4c(c3)OCO4)cc(C(F)(F)F)c12 (stereo not given),106,

# High-throughput results: PubChem, ICCB-Longwood Screening Facility, Harvard Medical School
